From patent US11702429B2, “mTORC modulators and uses thereof” (Aeovian Pharmaceuticals, Inc., priority 2019, dated 2023)

Key:
mTORC1 = mTORC1 (Homo sapiens, UniProt P42345+P62942); assay: Inhibition assay for mTORC1: phosphorylation of pS6K at Thr389, AlphaLISA in PC3 cells; format: cell-based
mTORC2 = mTORC2 (Homo sapiens, UniProt P42345+P62942); assay: Inhibition assay for mTORC2: phosphorylation of pAkt at Ser473, AlphaLISA in PC3 cells; format: cell-based
[1] = PC3 cells, treated 24 hours, pS6K Thr389, AlphaLISA, C16 diastereomer mixtures not separated
[2] = PC3 cells, treated 24 hours, pAkt Ser473, AlphaLISA, C16 diastereomer mixtures not separated
[3] = Rapamycin analogs substituted at C40, pS6K Thr389, PC3 cells, 24 hours treatment
[4] = Rapamycin analogs substituted at C40, pAkt Ser473, PC3 cells, 24 hours treatment

CO[C@@H]1C[C@H](C[C@@H](C)[C@@H]2CC(=O)[C@H](C)/C=C(\C)[C@@H](O)[C@@H](OC)C(=O)[C@H](C)C[C@H](C)/C=C/C=C/C=C(\C)C(OCCc3ccccc3)C[C@@H]3CC[C@@H](C)[C@@](O)(O3)C(=O)C(=O)N3CCCC[C@H]3C(=O)O2)CC[C@H]1OC(=O)NCCOCCOCCOCCOCCO (stereo partly shown)
pIC50 mTORC1 (mTORC1; [1]): A (pIC50 for mTORC1 of >9.5 as A)
pIC50 mTORC2 (mTORC2; [2]): C (greater than 6 as C)

CO[C@@H]1C[C@H](C[C@@H](C)[C@@H]2CC(=O)[C@H](C)/C=C(\C)[C@@H](O)[C@@H](OC)C(=O)[C@H](C)C[C@H](C)/C=C/C=C/C=C(\C)C(OCC3CCOCC3)C[C@@H]3CC[C@@H](C)[C@@](O)(O3)C(=O)C(=O)N3CCCC[C@H]3C(=O)O2)CC[C@H]1OCCCO (stereo partly shown)
pIC50 mTORC1 (mTORC1; [1]): A (pIC50 for mTORC1 of >9.5 as A)
pIC50 mTORC2 (mTORC2; [2]): B (5 to 6 as B)

COC1CC2CCC(C)C(O)(O2)C(=O)C(=O)N2CCCCC2C(=O)OC(C(C)CC2CCC(OC(=O)C(C)(CO)CO)C(OC)C2)CC(=O)C(C)C=C(C)C(O)C(OC)C(=O)C(C)CC(C)C=CC=CC=C1C (stereo not shown)
pIC50 mTORC1 (mTORC1; [3]): A (pIC50 for mTORC1 of >9.5 as A)
pIC50 mTORC2 (mTORC2; [4]): C (greater than 6 as C)

COC1C[C@@H]2CC[C@@H](C)[C@@](O)(O2)C(=O)C(=O)N2CCCC[C@H]2C(=O)O[C@H]([C@H](C)C[C@@H]2CC[C@@H](OC(=O)NCCCc3ccccc3)[C@H](OC)C2)CC(=O)[C@H](C)/C=C(\C)[C@@H](O)[C@@H](OC)C(=O)[C@H](C)C[C@H](C)/C=C/C=C/C=C/1C (stereo partly shown)
pIC50 mTORC1 (mTORC1; [3]): A (pIC50 for mTORC1 of >9.5 as A)
pIC50 mTORC2 (mTORC2; [4]): C (greater than 6 as C)

COC1C[C@@H]2CC[C@@H](C)[C@@](O)(O2)C(=O)C(=O)N2CCCC[C@H]2C(=O)O[C@H]([C@H](C)C[C@@H]2CC[C@@H](OCCCN3CCC[C@@H](O)C3)[C@H](OC)C2)CC(=O)[C@H](C)/C=C(\C)[C@@H](O)[C@@H](OC)C(=O)[C@H](C)C[C@H](C)/C=C/C=C/C=C/1C (stereo partly shown)
pIC50 mTORC1 (mTORC1; [3]): A (pIC50 for mTORC1 of >9.5 as A)
pIC50 mTORC2 (mTORC2; [4]): C (greater than 6 as C)

CO[C@@H]1C[C@H](C[C@@H](C)[C@@H]2CC(=O)[C@H](C)/C=C(\C)[C@@H](O)[C@@H](OC)C(=O)[C@H](C)C[C@H](C)/C=C/C=C/C=C(\C)C(OC[C@@H](C)O)C[C@@H]3CC[C@@H](C)[C@@](O)(O3)C(=O)C(=O)N3CCCC[C@H]3C(=O)O2)CC[C@H]1OCCCO (stereo partly shown)
pIC50 mTORC1 (mTORC1; [1]): B (8.5 to 9.5 as B)
pIC50 mTORC2 (mTORC2; [2]): A (PIC50 for mTORC2 of <5 as A)

CO[C@@H]1C[C@H](C[C@@H](C)[C@@H]2CC(=O)[C@H](C)/C=C(\C)[C@@H](O)[C@@H](OC)C(=O)[C@H](C)C[C@H](C)/C=C/C=C/C=C(\C)C(OCCCO)C[C@@H]3CC[C@@H](C)[C@@](O)(O3)C(=O)C(=O)N3CCCC[C@H]3C(=O)O2)CC[C@H]1OCCCO (stereo partly shown)
pIC50 mTORC1 (mTORC1; [1]): A (pIC50 for mTORC1 of >9.5 as A)
pIC50 mTORC2 (mTORC2; [2]): A (PIC50 for mTORC2 of <5 as A)

COC1C[C@@H]2CC[C@@H](C)[C@@](O)(O2)C(=O)C(=O)N2CCCC[C@H]2C(=O)O[C@H]([C@H](C)C[C@@H]2CC[C@@H](OCCOCCOCCOCCO)[C@H](OC)C2)CC(=O)[C@H](C)/C=C(\C)[C@@H](O)[C@@H](OC)C(=O)[C@H](C)C[C@H](C)/C=C/C=C/C=C/1C (stereo partly shown)
pIC50 mTORC1 (mTORC1; [3]): A (pIC50 for mTORC1 of >9.5 as A)
pIC50 mTORC2 (mTORC2; [4]): C (greater than 6 as C)
